Patent US20220202859A1, “CANCER TREATMENT USING CD38 INHIBITOR AND/OR LENALIDOMIDE AND T-CELLS EXPRESSING A CHIMERIC ANTIGEN RECEPTOR” (CRISPR THERAPEUTICS AG, priority 2020, published 2022)

Tested on: MM.1S tumors
Assay: Lenalidomide plus anti-BCMA CAR-T cells in MM.1S subcutaneous tumor model
Conditions: 2 & 3 weeks after CAR-T dosing

Question: With `Nc1cccc2c1CN(C1CCC(=O)NC1=O)C2=O` (stereo not shown) [Lenalidomide] as the molecule, how does the “numbers of CAR-T cells in mouse blood” value read?
Answer: significantly increase the numbers of the CAR-T cells in mouse blood in a dose dependent manner
